Experimental data published in PubChem BioAssay AID2280 (The Scripps Research Institute Molecular Screening Center, 2010).
Only a part is listed here, and it is no random draw. Some structures show a salt or complex split into parts, the way the source records it. Active and inactive are the calls of the source.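 How the source made its calls: active means percent inhibition above a per-plate cutoff, the plate mean of test compounds plus 3 SD (cut at about 30% in these data); inactive means the rest.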

Amino acid sequences for entries named in this document (tags omitted).
UniProt Q17339, whole entry: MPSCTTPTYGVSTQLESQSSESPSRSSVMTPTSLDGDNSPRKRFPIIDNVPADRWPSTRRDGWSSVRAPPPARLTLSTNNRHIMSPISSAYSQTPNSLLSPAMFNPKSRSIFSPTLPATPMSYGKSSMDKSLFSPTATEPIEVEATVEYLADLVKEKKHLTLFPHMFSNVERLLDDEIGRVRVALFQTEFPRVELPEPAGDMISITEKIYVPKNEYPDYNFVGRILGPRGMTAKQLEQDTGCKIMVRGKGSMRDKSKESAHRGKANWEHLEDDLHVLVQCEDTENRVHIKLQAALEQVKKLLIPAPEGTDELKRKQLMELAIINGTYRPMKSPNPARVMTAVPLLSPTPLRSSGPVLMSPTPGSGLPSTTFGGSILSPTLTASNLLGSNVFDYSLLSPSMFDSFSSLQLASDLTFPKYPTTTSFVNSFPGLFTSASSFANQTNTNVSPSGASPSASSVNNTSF

These compounds were tested against Female germline-specific tumor suppressor gld-1 (Caenorhabditis elegans) (UniProt Q17339) (assay: small molecules blocking C. elegans GLD-1 RNA recognition – biochemical, fluorescence polarization, primary screen (AID 2280;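 further: 0% = DMSO wells with GLD-1 and probe and 100% = wells lacking GLD-1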)). Conditions: purified GLD-1 + fluorescein TGE RNA, at 5.96 µM, stronger effect = higher value.

| Compound | inhibition |
| --- | --- |
| CC1=NCCc2c1[nH]c1ccccc21.O=[N+]([O-])c1cc([N+](=O)[O-])c(O)c([N+](=O)[O-])c1 | inactive: -5.52% |
| O=C(O)c1cccc(Nc2c([N+](=O)[O-])cc([N+](=O)[O-])cc2[N+](=O)[O-])c1 | inactive: 3.84% |
| CP(=O)(Nc1cccc(Br)c1)Oc1ccccc1 (configuration not stated) | inactive: -5.33% |
| Cc1cc(C)cc(OP(C)(=O)Nc2ccccn2)c1 (configuration not stated) | inactive: -1.99% |
| Cc1ccc(C)c(NP(C)(=O)Oc2ccccc2)c1 (configuration not stated) | inactive: -1.44% |
| Cc1cc(C)cc(OP(C)(=O)Nc2ccc(C)cc2C)c1 (configuration not stated) | inactive: 1.66% |
| CCOC(=O)c1ccc(NP(C)(=O)Oc2cc(C)cc(C)c2)cc1 (configuration not stated) | inactive: 2.58% |
| COc1ccccc1OP(C)(=O)Nc1cccc(Br)c1 (configuration not stated) | inactive: 1.57% |
| Cc1nc2ccc3ccccc3c2s1.O=[N+]([O-])c1cc([N+](=O)[O-])c(O)c([N+](=O)[O-])c1 | inactive: 0.68% |
| O=[N+]([O-])c1cc([N+](=O)[O-])c(-c2cnn(-c3ccccc3)c2)c([N+](=O)[O-])c1 | inactive: -4.5% |
| O=[N+]([O-])c1cc([N+](=O)[O-])c(-n2nnc3ccccc32)c([N+](=O)[O-])c1 | inactive: 4.46% |
| CP(=O)(Nc1ccc(SC(F)(F)F)cc1)Oc1ccccc1 (configuration not stated) | inactive: -2.94% |
| CCCOc1ccc(NP(C)(=O)Oc2ccc(Cl)cc2)cc1 (configuration not stated) | inactive: 0.26% |
| CN1CCCCC1COC(=O)C1(O)c2ccccc2CCc2ccccc21 (configuration not stated) | inactive: 1.53% |
| COc1ccccc1OP(C)(=O)Nc1c(C)cccc1C (configuration not stated) | inactive: 6.97% |
| O=[N+]([O-])c1cc([N+](=O)[O-])c(Nc2nnnn2CCO)c([N+](=O)[O-])c1 | inactive: -1.04% |
| CC1=C2N=C(C=C3N=C(C(C)=C4[N-][C@@](C)([C@@H]5N=C1[C@](C)(CCC(=O)NC[C@@H](C)OP(=O)([O-])O[C@H]1[C@@H](O)[C@@H](n6cnc7cc(C)c(C)cc76)O[C@@H]1CO)[C@H]5CC(N)=O)[C@@](C)(CC(N)=O)[C@@H]4CCC(N)=O)[C@@](C)(CC(N)=O)[C@@H]3CCC(N)=O)C(C)(C)[C@@H]2CCC(N)=O.[C-]#N.[Co+3] | inactive: 2.12% |
| CCOC(=O)C(CC)C1=NC(C)(C)Cc2ccccc21.O=[N+]([O-])c1cc([N+](=O)[O-])c(O)c([N+](=O)[O-])c1 (configuration not stated) | inactive: -2.22% |
| COc1ccccc1OP(C)(=O)Nc1ccccc1 (configuration not stated) | inactive: 15.2% |
| CP(=O)(Nc1ccccc1Br)Oc1ccccc1 (configuration not stated) | inactive: -1.9% |
| CP(=S)(Nn1cnnc1)Oc1ccccc1 (configuration not stated) | inactive: -0.38% |
| CP(=O)(Nc1ccccn1)Oc1ccc(Cl)cc1 (configuration not stated) | inactive: -4.45% |

| Compound | inhibition |
| --- | --- |
| CCOP(C)(=S)SCC(=O)NC(C)C(=O)O (configuration not stated) | inactive: -0.38% |
| O=[N+]([O-])c1cc([N+](=O)[O-])c(O)c([N+](=O)[O-])c1.c1ccc(Oc2ccncc2)cc1 | inactive: -0.2% |
| CCOC(=O)c1ccc(NP(C)(=O)Oc2ccc(OC)cc2)cc1 (configuration not stated) | inactive: 4.19% |
| CCc1ccc(OP(C)(=O)N2CCN(c3ccc([N+](=O)[O-])cc3)CC2)cc1 (configuration not stated) | inactive: -2.01% |
| CP(=O)(NC(=O)Nc1ccccc1)Oc1ccccc1 (configuration not stated) | inactive: -0.75% |
| Cc1cc(C)cc(OP(C)(=O)Nc2ccc(SC(F)(F)F)cc2)c1 (configuration not stated) | inactive: 5.63% |
| CP(=O)(Nc1ccc(SC(F)(F)F)cc1)Oc1ccc(Cl)cc1 (configuration not stated) | inactive: 8.98% |
| Cc1cccc(C)c1OP(C)(=O)Nc1ccc(SC(F)(F)F)cc1 (configuration not stated) | inactive: -1.34% |
| CP(=O)(Oc1ccccc1)OC(c1ccccc1)C(F)(F)F (configuration not stated) | inactive: 11.6% |
| CCN(CC)CCCOC(=O)C(O)(c1ccccc1)c1ccccc1 | inactive: -0.09% |
| COc1ccccc1OP(C)(=O)Nc1cc(Cl)ccc1C (configuration not stated) | inactive: -2.54% |
| COc1ccc(OP(C)(=O)Nc2cccc(F)c2)cc1 (configuration not stated) | inactive: -0.35% |
| Cc1cc(C)cc(OP(C)(N)=O)c1 (configuration not stated) | inactive: 2.97% |
| CCOC(=O)c1ccc(NP(C)(=O)Oc2ccccc2)cc1 (configuration not stated) | inactive: 2.12% |
| Cc1ccc(NP(C)(=O)Oc2ccccc2)c(C)c1 (configuration not stated) | inactive: 1.34% |
| CC(C)(C)c1ccc(OP(C)(=O)Nc2ccc(SC(F)(F)F)cc2)cc1 (configuration not stated) | inactive: -6.72% |
| Cc1cccc(C)c1OP(C)(N)=O (configuration not stated) | inactive: -7.4% |
| O=[N+]([O-])c1ccc2c(c1)C=Nc1ccccc1O2 | inactive: -0.05% |
| O=[N+]([O-])c1cc([N+](=O)[O-])c(Nc2cccnc2)c([N+](=O)[O-])c1 | inactive: -3.98% |
| CP(=O)(OCCOc1ccccc1)OCCOc1ccccc1 | inactive: 2.9% |
| CP(=O)(Nc1ccc(Cl)cc1Cl)Oc1ccccc1 (configuration not stated) | inactive: 2.36% |
| Cc1nc2ccc3ccccc3c2o1.O=[N+]([O-])c1cc([N+](=O)[O-])c(O)c([N+](=O)[O-])c1 | inactive: 5.4% |

| Compound | inhibition |
| --- | --- |
| COc1ccc(OP(C)(=O)Nc2ccccc2Br)cc1 (configuration not stated) | inactive: -0.01% |
| COc1ccccc1OP(C)(=O)Nc1ccc(C)c(C)c1 (configuration not stated) | inactive: 0.43% |
| Cc1cc(C)cc(OP(C)(=O)Nc2cccc(C(F)(F)F)c2)c1 (configuration not stated) | inactive: -6.5% |
| CCc1ccc(OP(C)(=O)O)cc1 | inactive: -3.87% |
| CP(=O)(Nc1ccccn1)Oc1ccccc1 (configuration not stated) | inactive: 2.03% |
| COc1ccccc1OP(C)(=O)Nc1ccc(C)cc1C (configuration not stated) | inactive: 4.09% |
| O=[N+]([O-])c1cc([N+](=O)[O-])c(Nc2ccccn2)c([N+](=O)[O-])c1 | inactive: 10.2% |
| Cc1c(NP(C)(=O)Oc2ccc(C(C)C)cc2)c(=O)n(-c2ccccc2)n1C (configuration not stated) | inactive: 0.95% |
| CN(C)CCOC(=O)C(O)(c1ccccc1)C1CCCC1 (configuration not stated) | inactive: -0.78% |
| COc1ccc(OP(C)(=O)Nc2ccccn2)cc1 (configuration not stated) | inactive: -4.05% |
| COc1ccccc1OP(C)(=O)Nc1ccc(Br)cc1 (configuration not stated) | inactive: -2.63% |
| CN(C)C(=O)c1c([N+](=O)[O-])cc([N+](=O)[O-])cc1[N+](=O)[O-] | inactive: 5.85% |
| CP(=O)(Nc1ccc(Cl)cc1)Oc1ccc(F)cc1 (configuration not stated) | inactive: 4.75% |
| CC(C)(C)c1ccc(OP(C)(=O)O)cc1 | inactive: -4.54% |
| COc1ccccc1OP(C)(=O)Nc1ccccc1Br (configuration not stated) | inactive: -1.21% |
| CP(=O)(Oc1ccccc1)N1CCOC1=O (configuration not stated) | inactive: 2.68% |
| CCc1ccc(OP(C)(=O)Nc2cccnc2)cc1 (configuration not stated) | inactive: 6.89% |
| COc1ccccc1OP(C)(=O)Nc1c(C)n(C)n(-c2ccccc2)c1=O (configuration not stated) | inactive: 5.86% |
| O=C(OCCCN1CCCC1)C(O)(c1ccccc1)C1CCCCC1 (configuration not stated) | inactive: 3.4% |
| CCN(CC)CC(O)COC(=O)C(O)(c1ccccc1)C1CCCCC1 (configuration not stated) | inactive: 6.14% |
| COc1ccc(OP(C)(=O)Nc2ccc(Br)cc2)cc1 (configuration not stated) | inactive: 4.1% |
| CP(=O)(OC12CC3CC(CC(C3)C1)C2)OC12CC3CC(CC(C3)C1)C2 | inactive: 9.11% |

| Compound | inhibition |
| --- | --- |
| CCOC(=O)c1ccc(NP(C)(=O)Oc2ccc(Cl)cc2)cc1 (configuration not stated) | inactive: 5.61% |
| Nc1ccc2c(ccc3cccnc32)n1.O=[N+]([O-])c1cc([N+](=O)[O-])c(O)c([N+](=O)[O-])c1 | inactive: 1.82% |
| O=[N+]([O-])c1cc([N+](=O)[O-])c(NCC2CCS(=O)(=O)C2)c([N+](=O)[O-])c1 (configuration not stated) | inactive: 1.8% |
| COc1ccc(NP(C)(=O)Oc2ccccc2OC)cc1 (configuration not stated) | inactive: 4.3% |
| CN(C)CCOC(=O)C(O)(c1ccccc1)C1CCCCC1 (configuration not stated) | inactive: 9.09% |
| COc1ccc(OP(C)(=O)Nc2cccc(Br)c2)cc1 (configuration not stated) | inactive: 0.19% |
| Cc1ccccc1NP(C)(=O)Nc1ccccc1C | inactive: -0.94% |
| CP(=O)(Nc1ccc2c(c1)OCCO2)Oc1ccccc1 (configuration not stated) | inactive: 6.76% |
| CCOP(C)(=S)SCC(=O)NC(C)(CC)C(=O)O (configuration not stated) | inactive: 5.82% |
| CP(=O)(Nc1ccc(SC(F)(F)F)cc1)Oc1ccc(F)cc1 (configuration not stated) | inactive: 3.61% |
| COc1ccc2c(c1O)-c1c(O)c(OC)cc3c1[C@H](C2)[N+](C)(C)CC3.O=[N+]([O-])c1cc([N+](=O)[O-])c([O-])c([N+](=O)[O-])c1[O-] | inactive: 10.4% |
| O=C(OCCN1CCN(CCOCc2ccccc2)CC1)C(O)(c1ccccc1)c1ccccc1 | inactive: 7.09% |
| O=C(OC1CN2CCC1CC2)c1ccc([N+](=O)[O-])cc1 (configuration not stated) | inactive: -1.89% |
| CC(C)c1ccc(OP(C)(=O)Nc2ccc(SC(F)(F)F)cc2)cc1 (configuration not stated) | inactive: 8.84% |
| CP(=O)(Nc1ccccc1F)Oc1ccccc1 (configuration not stated) | inactive: 2.3% |
| CCCCCOc1ccc(NP(C)(=O)Oc2ccc(Cl)cc2Cl)cc1 (configuration not stated) | inactive: 4.54% |
| O=[N+]([O-])c1cc([N+](=O)[O-])c(OC2CCCCC2O)c([N+](=O)[O-])c1 (configuration not stated) | inactive: 7.59% |
| CP(=O)(Nc1ccccc1)Oc1ccc(F)cc1 (configuration not stated) | inactive: -12.4% |
| CCN(CC)CCCOC(=O)C(O)(c1ccccc1)C1CCCCC1 (configuration not stated) | inactive: 2.9% |
| COc1ccc(OP(C)(=O)Nc2ccc(SC(F)(F)F)cc2)cc1 (configuration not stated) | inactive: 0.78% |
| CCOC(=O)c1ccc(NP(C)(=O)Oc2ccc(F)cc2)cc1 (configuration not stated) | inactive: -1.01% |
